Measured values reported in US12171806B2, “Therapeutic regimens and methods for lowering blood glucose and/or body weight using GLP-1R and GCGR balanced agonists” (priority 2021, dated 2024).

Test: Phase 1 MAD study of ALT-801: adverse events (TEAEs), safety overview

Which ALT elevations (One subject receiving the 1.8 mg dose, with subsequent resolution) does the source give for `CC[C@H](C)[C@H](NC(=O)[C@H](Cc1ccccc1)NC(=O)[C@H](CCC(=O)O)NC(=O)[C@@H]1CCCCNC(=O)CC[C@H](NC(=O)[C@H](CC(=O)O)NC(=O)[C@H](CC(C)C)NC(=O)[C@H](Cc2ccc(O)cc2)NC(=O)[C@H](CCCCN)NC(=O)[C@H](CO)NC(=O)[C@H](Cc2ccc(O)cc2)NC(=O)[C@H](CC(=O)O)NC(=O)[C@H](CO)NC(=O)[C@@H](NC(=O)[C@H](Cc2ccccc2)NC(=O)[C@@H](NC(=O)CNC(=O)[C@H](CCC(N)=O)NC(=O)C(C)(C)NC(=O)[C@@H](N)Cc2c[nH]cn2)[C@@H](C)O)[C@@H](C)O)C(=O)N[C@@H](CCCCNC(=O)[C@H]2O[C@@H](OCCCCCCCCCCCCCCCCCC(=O)O)[C@H](O)[C@@H](O)[C@@H]2O)C(=O)N[C@@H](C)C(=O)N[C@@H](C)C(=O)N1)C(=O)N[C@@H](CCC(N)=O)C(=O)N[C@@H](Cc1c[nH]c2ccccc12)C(=O)N[C@@H](CC(C)C)C(=O)N[C@@H](CC(C)C)C(=O)N[C@@H](CCC(N)=O)C(=O)N[C@H](C(N)=O)[C@@H](C)O` [ALT-801, pemvidutide] here?
The ALT elevations was “*One subject receiving the 1.8 mg dose and one receiving placebo experienced 3-5 times ALT elevations with subsequent resolutions. Most frequently mild at 1.8 mg dose with on-drug resolution and not requiring treatment. No study discontinuations due to adverse events (AEs)”.

What about the “Any TEAE; Mild; %” value (Overall (N = 27)) of the same compound?
The value was “(44.4%)”.

And the “Any TEAE; Mild; n” value (Overall (N = 27))?
The value was 12.

And the “Any TEAE; Moderate; %” value (Overall (N = 27))?
Its value is “(40.7%)”.

What about the “Any TEAE; Moderate; n” value (Overall (N = 27)) of the same compound?
The value was 11.

What about the “Any TEAE; PLT; %” value (Overall (N = 27)) of the same compound?
The value was “(0.0%)”.

What about the “Any TEAE; PLT; n” value (Overall (N = 27)) of the same compound?
The value was 0.

And the “Any TEAE; Severe; %” value (Overall (N = 27))?
Its value is “(0.0%)”.

What about the “Any TEAE; Severe; n” value (Overall (N = 27)) of the same compound?
The value was 0.

And the “TEAE Abdominal discomfort; Mild; %” value (Overall (N = 27))?
The value was “(7.4%)”.

What about the “TEAE Abdominal discomfort; Mild; n” value (Overall (N = 27)) of the same compound?
Its value is 2.

What about the “TEAE Abdominal discomfort; Moderate; %” value (Overall (N = 27)) of the same compound?
The value was “(0.0%)”.

What about the “TEAE Abdominal discomfort; Moderate; n” value (Overall (N = 27)) of the same compound?
The value was 0.

And the “TEAE Abdominal discomfort; PLT; %” value (Overall (N = 27))?
The value was “(0.0%)”.

What about the “TEAE Abdominal discomfort; PLT; n” value (Overall (N = 27)) of the same compound?
The value was 0.

What about the “TEAE Abdominal discomfort; Severe; %” value (Overall (N = 27)) of the same compound?
The value was “(0.0%)”.

And the “TEAE Abdominal discomfort; Severe; n” value (Overall (N = 27))?
The value was 0.

And the “TEAE Abdominal distension; Mild; %” value (Overall (N = 27))?
Its value is “(3.7%)”.

What about the “TEAE Abdominal distension; Mild; n” value (Overall (N = 27)) of the same compound?
The value was 1.

What about the “TEAE Abdominal distension; Moderate; %” value (Overall (N = 27)) of the same compound?
The value was “(0.0%)”.

And the “TEAE Abdominal distension; Moderate; n” value (Overall (N = 27))?
The value was 0.

What about the “TEAE Abdominal distension; PLT; %” value (Overall (N = 27)) of the same compound?
The value was “(0.0%)”.

What about the “TEAE Abdominal distension; PLT; n” value (Overall (N = 27)) of the same compound?
Its value is 0.

What about the “TEAE Abdominal distension; Severe; %” value (Overall (N = 27)) of the same compound?
The value was “(0.0%)”.

What about the “TEAE Abdominal distension; Severe; n” value (Overall (N = 27)) of the same compound?
The value was 0.

What about the “TEAE Abdominal pain; Mild; %” value (Overall (N = 27)) of the same compound?
Its value is “(18.5%)”.

What about the “TEAE Abdominal pain; Mild; n” value (Overall (N = 27)) of the same compound?
The value was 5.

What about the “TEAE Abdominal pain; Moderate; %” value (Overall (N = 27)) of the same compound?
Its value is “(0.0%)”.

What about the “TEAE Abdominal pain; Moderate; n” value (Overall (N = 27)) of the same compound?
The value was 0.

What about the “TEAE Abdominal pain; PLT; %” value (Overall (N = 27)) of the same compound?
The value was “(0.0%)”.

What about the “TEAE Abdominal pain; PLT; n” value (Overall (N = 27)) of the same compound?
The value was 0.

And the “TEAE Abdominal pain; Severe; %” value (Overall (N = 27))?
The value was “(0.0%)”.

And the “TEAE Abdominal pain; Severe; n” value (Overall (N = 27))?
The value was 0.

What about the “TEAE Anaemia; Mild; %” value (Overall (N = 27)) of the same compound?
Its value is “(3.7%)”.

What about the “TEAE Anaemia; Mild; n” value (Overall (N = 27)) of the same compound?
The value was 1.

What about the “TEAE Anaemia; Moderate; %” value (Overall (N = 27)) of the same compound?
The value was “(0.0%)”.

What about the “TEAE Anaemia; Moderate; n” value (Overall (N = 27)) of the same compound?
Its value is 0.

What about the “TEAE Anaemia; PLT; %” value (Overall (N = 27)) of the same compound?
The value was “(0.0%)”.

And the “TEAE Anaemia; PLT; n” value (Overall (N = 27))?
The value was 0.

What about the “TEAE Anaemia; Severe; %” value (Overall (N = 27)) of the same compound?
Its value is “(0.0%)”.

What about the “TEAE Anaemia; Severe; n” value (Overall (N = 27)) of the same compound?
The value was 0.

What about the “TEAE Application site bruise; Mild; %” value (Overall (N = 27)) of the same compound?
The value was “(0.0%)”.

What about the “TEAE Application site bruise; Mild; n” value (Overall (N = 27)) of the same compound?
The value was 0.

And the “TEAE Application site bruise; Moderate; %” value (Overall (N = 27))?
Its value is “(0.0%)”.

What about the “TEAE Application site bruise; Moderate; n” value (Overall (N = 27)) of the same compound?
Its value is 0.

What about the “TEAE Application site bruise; PLT; %” value (Overall (N = 27)) of the same compound?
Its value is “(0.0%)”.

What about the “TEAE Application site bruise; PLT; n” value (Overall (N = 27)) of the same compound?
The value was 0.

And the “TEAE Application site bruise; Severe; %” value (Overall (N = 27))?
Its value is “(0.0%)”.

What about the “TEAE Application site bruise; Severe; n” value (Overall (N = 27)) of the same compound?
Its value is 0.

And the “TEAE Application site erythema; Mild; %” value (Overall (N = 27))?
Its value is “(3.7%)”.

What about the “TEAE Application site erythema; Mild; n” value (Overall (N = 27)) of the same compound?
Its value is 1.

And the “TEAE Application site erythema; Moderate; %” value (Overall (N = 27))?
Its value is “(0.0%)”.

What about the “TEAE Application site erythema; Moderate; n” value (Overall (N = 27)) of the same compound?
Its value is 0.

And the “TEAE Application site erythema; PLT; %” value (Overall (N = 27))?
The value was “(0.0%)”.

What about the “TEAE Application site erythema; PLT; n” value (Overall (N = 27)) of the same compound?
Its value is 0.

What about the “TEAE Application site erythema; Severe; %” value (Overall (N = 27)) of the same compound?
Its value is “(0.0%)”.

What about the “TEAE Application site erythema; Severe; n” value (Overall (N = 27)) of the same compound?
Its value is 0.

And the “TEAE Blood and lymphatic system disorders; Mild; %” value (Overall (N = 27))?
Its value is “(3.7%)”.

What about the “TEAE Blood and lymphatic system disorders; Mild; n” value (Overall (N = 27)) of the same compound?
Its value is 1.

What about the “TEAE Blood and lymphatic system disorders; Moderate; %” value (Overall (N = 27)) of the same compound?
The value was “(0.0%)”.

And the “TEAE Blood and lymphatic system disorders; Moderate; n” value (Overall (N = 27))?
The value was 0.

And the “TEAE Blood and lymphatic system disorders; PLT; %” value (Overall (N = 27))?
Its value is “(0.0%)”.

And the “TEAE Blood and lymphatic system disorders; PLT; n” value (Overall (N = 27))?
The value was 0.

And the “TEAE Blood and lymphatic system disorders; Severe; %” value (Overall (N = 27))?
Its value is “(0.0%)”.

And the “TEAE Blood and lymphatic system disorders; Severe; n” value (Overall (N = 27))?
Its value is 0.

What about the “TEAE Cardiac disorders; Mild; %” value (Overall (N = 27)) of the same compound?
Its value is “(7.4%)”.

And the “TEAE Cardiac disorders; Mild; n” value (Overall (N = 27))?
Its value is 2.

What about the “TEAE Cardiac disorders; Moderate; %” value (Overall (N = 27)) of the same compound?
Its value is “(0.0%)”.

And the “TEAE Cardiac disorders; Moderate; n” value (Overall (N = 27))?
The value was 0.

What about the “TEAE Cardiac disorders; PLT; %” value (Overall (N = 27)) of the same compound?
Its value is “(0.0%)”.

And the “TEAE Cardiac disorders; PLT; n” value (Overall (N = 27))?
Its value is 0.

What about the “TEAE Cardiac disorders; Severe; %” value (Overall (N = 27)) of the same compound?
Its value is “(0.0%)”.

What about the “TEAE Cardiac disorders; Severe; n” value (Overall (N = 27)) of the same compound?
The value was 0.

What about the “TEAE Constipation; Mild; %” value (Overall (N = 27)) of the same compound?
The value was “(11.1%)”.

What about the “TEAE Constipation; Mild; n” value (Overall (N = 27)) of the same compound?
Its value is 3.

What about the “TEAE Constipation; Moderate; %” value (Overall (N = 27)) of the same compound?
The value was “(7.4%)”.

And the “TEAE Constipation; Moderate; n” value (Overall (N = 27))?
Its value is 2.

And the “TEAE Constipation; Potentially PLT; %” value (Overall (N = 27))?
Its value is “(0.0%)”.

What about the “TEAE Constipation; Potentially PLT; n” value (Overall (N = 27)) of the same compound?
The value was 0.

And the “TEAE Constipation; Severe; %” value (Overall (N = 27))?
The value was “(0.0%)”.

What about the “TEAE Constipation; Severe; n” value (Overall (N = 27)) of the same compound?
The value was 0.

What about the “TEAE Diarrhoea; Mild; %” value (Overall (N = 27)) of the same compound?
Its value is “(7.4%)”.

And the “TEAE Diarrhoea; Mild; n” value (Overall (N = 27))?
Its value is 2.

What about the “TEAE Diarrhoea; Moderate; %” value (Overall (N = 27)) of the same compound?
Its value is “(0.0%)”.

And the “TEAE Diarrhoea; Moderate; n” value (Overall (N = 27))?
Its value is 0.

What about the “TEAE Diarrhoea; PLT; %” value (Overall (N = 27)) of the same compound?
Its value is “(0.0%)”.

And the “TEAE Diarrhoea; PLT; n” value (Overall (N = 27))?
The value was 0.

What about the “TEAE Diarrhoea; Severe; %” value (Overall (N = 27)) of the same compound?
Its value is “(0.0%)”.

What about the “TEAE Diarrhoea; Severe; n” value (Overall (N = 27)) of the same compound?
Its value is 0.
